This is an account of results in patent publication US7339023B2, “Partial peptide mimetics and methods” (Regents of the University of Minnesota, priority 2002, dated 2008).

Series [1] in a line: Toxicity assays (body weight, behavior, hematocrit, creatinine, autopsy). It counts as in vivo, mice. The settings on record: for Signs of toxicity (behavior, weight gain): all in vivo experiments, data not shown; for Macro- and microscopic morphology of internal organs on autopsy: mouse, in vivo; for Creatinine levels / Hematocrit levels: one day after terminating treatment, relative to control. The procedure:
As an indirect measurement of general toxicity, body weights of mice were monitored twice weekly, using a digital balance (Ohaus Florham, N.J.). To determine hematocrit and creatinine levels, blood samples were extracted by tail vein bleedings one day after terminating treatment and blood was collected in heparinized micro-bematocrit capillary tubes (Fisher; Pittsburgh, Pa.). For hematocrit levels, samples were spun down for 10 minutes in a micro-hematocrit centrifuge (Clay-Adams; NY), and the amount of hematocrit was determined using an international microcapillary reader (IEC; Needham, Mass.). To obtain creatinine levels, a kit was purchased from Sigma (Sigma Diagnostics; St Louis, Mo.) and used according to the manufacturer's instructions.

Series [2] in a line: Water solubility (observed during NMR work). It is filed as physicochemical.

Turning to SVQMKL-[DBF]-IIVKLND [6DBF7], in series [1], the “Signs of toxicity (behavior, weight gain)” value is reported as “did not show any sign of toxicity”; the “Macro- and microscopic morphology of internal organs on autopsy” value is “normal”; the Creatinine levels result is listed as “normal relative to control”; the Hematocrit levels entry was “normal relative to control”. Also, the Water solubility entry in series [2] is on record as “limited water solubility”.
Turning to ANIKLSVQMKL-[DBF]-IIVKLND [11DBF7], in series [1], the “Signs of toxicity (behavior, weight gain)” value is reported as “did not show any sign of toxicity”; the “Macro- and microscopic morphology of internal organs on autopsy” value is listed as “normal”; the Creatinine levels entry is listed as “normal relative to control”; the Hematocrit levels entry was “normal relative to control”. For the same substance, the Water solubility entry in series [2] is “limited water solubility”.
